From patent US7786145B2, “Cyanoguanidine-based azole compounds useful as malonyl-CoA decarboxylase inhibitors” (Chugai Seiyaku Kabushiki Kaisha, priority 2003, dated 2010) come the findings set out here.

Amino acid sequences for entries named in this document (tags omitted). Residues count along the entry.
UniProt O95822, 40-493 limits assumed: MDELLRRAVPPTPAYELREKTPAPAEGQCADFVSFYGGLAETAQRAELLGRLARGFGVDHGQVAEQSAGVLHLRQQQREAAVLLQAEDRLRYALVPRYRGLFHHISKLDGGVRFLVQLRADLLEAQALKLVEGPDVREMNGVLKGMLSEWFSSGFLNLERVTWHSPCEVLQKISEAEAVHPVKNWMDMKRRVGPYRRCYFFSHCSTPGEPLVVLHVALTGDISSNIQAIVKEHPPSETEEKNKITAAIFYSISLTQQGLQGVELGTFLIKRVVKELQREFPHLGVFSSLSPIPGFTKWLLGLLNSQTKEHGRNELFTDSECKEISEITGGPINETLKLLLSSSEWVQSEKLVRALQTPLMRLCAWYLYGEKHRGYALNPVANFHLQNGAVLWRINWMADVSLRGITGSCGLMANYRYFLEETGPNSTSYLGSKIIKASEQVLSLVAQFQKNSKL

For assay [1], the target named is hMCD (malonyl-CoA decarboxylase) (Homo sapiens, UniProt O95822). Put plainly: In Vitro MCD Inhibitory Assay. As to the method: In Vitro MCD Inhibitory Assay:
The conversion of […] was assayed using a modified protocol as previously described by Kim, Y. S. and Kolattukudy, P. E. in 1978 (Arch. Biochem. Biophys 190:585 (1978)). As shown in eq. 1-3, the establishment of the kinetic equilibrium between malate/NAD and oxaloacetate/NADH was catalyzed by malic dehydrogenase (eq. 2). […] The accumulation of NADH can be continuously followed by monitoring the increase of fluorescence emission at 460 nm on a fluorescence plate reader. The fluorescence plate reader was calibrated using the authentic acetyl-CoA from Sigma. For a typical 96-well plate assay, the increase in the fluorescence emission (λex=360 nm, λem=460 nm, for NADH) in each well was used to calculate the initial velocity of hMCD. Each 50 μL assay contained 10 mM phosphate buffered saline (Sigma), pH 7.4, 0.05% Tween-20, 25 mM K2HPO4—KH2PO4 (Sigma), 2 mM Malate (Sigma), 2 mM NAD (Boehringer Mannheim), 0.786 units of MD (Roche Chemicals), 0.028 unit of CS (Roche Chemicals), 5-10 nM hMCD, and varying amounts of MCA substrate. Assays were initiated by the addition of MCA, and the rates were corrected for the background rate determined in the absence of hMCD.

The subject of assay [2] is Isolated Working Rat Hearts. Put plainly: Glucose oxidation in isolated working rat hearts. Set-up: unit not given here. The settings on record: DMSO control. As to the method:
Isolated Working Rat Heart Assay Protocol
Isolated working hearts from male Sprague-Dawley rats (300-350 g) are subjected to a 60-minute aerobic perfusion period. The working hearts are perfused with 95% O2, 5% CO2 with a modified Krebs-Henseleit solution containing 5 mM glucose; 100 μU/mL insulin; 3% fatty acid-free BSA; 2.5 mM free Ca^2+, and 0.4 to 1.2 mmol/L palmitate (Kantor et al., Circulation Research 86:580-588(2000)). The test compound is added 5 minutes before the perfusion period. DMSO (0.05%) is used as control.
Measurement of Glucose Oxidation Rates
Samples were taken at 10-minute intervals for measurements of experimental parameters. Glucose oxidation rates are determined by the quantitative collection of ^14CO2 produced by hearts perfused with buffer containing [U14]-Glucose (R. Barr and G. Lopaschuk, in “Measurement of cardiovascular function”, McNeill, J. H. ed., Chapter 2, CRC press, New York (1997)). After the perfusion, the ^14CO2 from the perfusae is subsequently released by injecting 1 mL of perfusate into sealed test tube containing 1 mL of 9N H2SO4. […] Samples were counted by standard procedures as described above. Average rates of glucose oxidation for each phase of perfusion are expressed as μmol/min/g dry wt as described above. […]

By Ki is commonly meant a dissociation constant, usually derived from enzyme kinetics or from competition with a known ligand. Molecule `CC(C)CN(C(=NC#N)Nc1ccc(OCCCC(F)(F)F)cc1)c1ccc2nc(S)sc2c1` gave a Ki in assay [1] (Table 1, MCD inhibition) of 14.9 nM.

For the molecule `CCCN(C(=NC#N)Nc1ccc(C(=O)OC)cc1)c1ccc2nc(S)sc2c1`, the Ki in assay [1] (Table 1, MCD inhibition) was 2.2 nM.

As for `CN(C(=NC#N)Nc1ccc(OCCCC(F)(F)F)cc1)c1ccc2nc(S)sc2c1`, the Ki in assay [1] (Table 1, MCD inhibition) amounted to 2.8 nM.

In the case of `CC(=O)Nc1ccc(NC(=NC#N)N(C)c2ccc3nc(S)sc3c2)cc1`, the Ki in assay [1] (Table 1, MCD inhibition) came out at 73.3 nM.

Molecule `CN(C(=NC#N)Nc1ccc(C(N)=O)cc1)c1ccc2nc(S)sc2c1` showed a Ki in assay [1] (Table 1, MCD inhibition) of 13.3 nM.

As for `CCN(C(=NC#N)Nc1ccc(NC(C)=O)cc1)c1ccc2nc(S)sc2c1`, the Ki in assay [1] (Table 1, MCD inhibition) worked out at 59.9 nM.

In assay [1] (Table 1, MCD inhibition), `CCCN(C(=NC#N)Nc1ccc(OCCCC(F)(F)F)cc1)c1ccc2nc(S)sc2c1` showed a Ki of 3.3 nM.

For `CCN(C(=NC#N)Nc1ccc(OCCCC(F)(F)F)cc1)c1ccc2nc(S)sc2c1`, in assay [2], the GOX came out at 353. Further, the Ki in assay [1] (Table 1, MCD inhibition) amounted to 5.1 nM; in assay [1] (Table 2, MCD inhibition) it was 5.1 nM.
